# Data from patent publication US9371294B2, “Cycloalkenyl aryl derivatives for CETP inhibitor” (CHONG KUN DANG PHARMACEUTICAL CORP., priority 2011, dated 2016).
# By UniProt entry, the sequences of proteins in these tests, tags left out. Residues count along the entry.
# UniProt P11597, 18-493 limits assumed: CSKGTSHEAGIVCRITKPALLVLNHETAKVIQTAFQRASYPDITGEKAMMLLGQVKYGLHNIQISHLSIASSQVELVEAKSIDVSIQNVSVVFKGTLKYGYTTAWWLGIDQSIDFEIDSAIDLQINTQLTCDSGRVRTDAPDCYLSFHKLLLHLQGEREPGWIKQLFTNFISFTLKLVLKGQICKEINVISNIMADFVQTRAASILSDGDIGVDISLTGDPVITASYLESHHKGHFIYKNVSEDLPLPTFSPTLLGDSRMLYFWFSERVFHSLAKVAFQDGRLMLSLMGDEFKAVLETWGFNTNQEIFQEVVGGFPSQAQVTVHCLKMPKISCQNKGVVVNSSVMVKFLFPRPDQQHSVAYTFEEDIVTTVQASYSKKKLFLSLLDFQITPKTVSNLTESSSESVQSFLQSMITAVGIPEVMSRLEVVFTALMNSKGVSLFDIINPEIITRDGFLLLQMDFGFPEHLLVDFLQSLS
# Target: cholesteryl ester transfer protein (Homo sapiens, UniProt P11597)
# Assay: In vitro test for the ability to inhibit cholesteryl ester transfer
# Details: [3H]-cholesteryl oleate transfer from rHDL-agarose to LDL; human plasma as CETP source; 37° C.; 16-10000 nM, duplicate
structure (smiles),measurement,value
COc1cc(F)c(C(C)C)cc1C1=C(CN2C(=O)O[C@H](c3cc(C(F)(F)F)cc(C(F)(F)F)c3)[C@@H]2C)CN(S(=O)(=O)C(F)(F)F)CC1,pIC50,6.71

# pIC50: −log10 of the molar value.
